Here are results for 6 molecules from patent US11396531B2, “Antimicrobial peptides comprising epsilon lysine residues” (priority 2016, dated 2022).

The test system of series [1] is primary human dermal fibroblasts (HDFs). The series is described as follows: MTS cytotoxicity assay. The conditions noted are these: for Peptide concentration required to impart cytotoxic effect: MTS assay, primary human fibroblasts; for Cytotoxicity for HDFs: Table 7. The method, then:
MTS ((3-(4,5-dimethylthiazol-2-yl)-5-(3-carboxymethoxyphenyl)-2-(4-sulfophenyl)-2H-tetrazolium)) assay and high content analysis (HCA) were performed to elucidate the effect of various polymers on metabolic activity and morphological parameters of cultured human dermal fibroblasts (hDF), respectively as described previously. The antineoplastic agent, nocodazole (5 μg/ml), served as the […] control whereas cells treated with PBS served as positive control. The average values from three independent triplicate experiments are reported. Cells were cultured in 96-well plates and scanned (16 randomly selected fields/well) using an automated microscope IN Cell Analyzer 2200 (GE Healthcare). The multi-parametric cytotoxicity bio-application module of the IN Cell Investigator software (GE Healthcare) was used in quantitative estimations and morphotypic analysis of acquired images, which were automatically converted into color-coded heatmaps using Spotrfire® software.
Human dermal fibroblast cells were seeded in 96-well plates (2×10^3 cells/well) and incubated for 24 h at 37° C. and 5% CO2. Cells were then treated with various concentrations of polymers or peptides (62.5 μg/ml-1 mg/ml. At the end of the treatment period (after 24 h), 20 or 50 μl of MTS tetrazolium solution was added into 96-well or 12-well plates and further incubated for 2 h at 37° C. Subsequently, the absorbance was measured at 490 nm using a microplate reader (Infinite M200 Pro, Tecan, Switzerland) and the relative cell viability was calculated. Each treatment was performed in two triplicates and reported.
The cytotoxicity of peptides and polymers were determined using CellTier 96® Aqueous One solution cell proliferation assay kit according to the manufacturer's instruction (Promega Corporation, Madison, Wis.). This assay evaluates mitochondrial function by measuring ability of viable cells to reduce MTS ((3-(4,5-dimethylthiazol-2-yl)-5-(3-carboxymethoxyphenyl)-2-(4-sulfophenyl)-2H-tetrazolium)) into a quantifiable […] formazan product. HDFs were seeded in 96-well plates (2×10^3 cells/well) and incubated for 24 h at 37° C. and 5% CO2. Cells were then treated with a concentrated stock solution of polymers (final concentration 62.5-2000 μg/ml in the well) or peptides (final concentration 4-1000 μg/ml in the well). After 24 h, 20 μl of MTS tetrazolium solution was added into 96-well well plates and further incubated for 2 h at 37° C. Subsequently, the absorbance was measured at 490 nm using a microplate reader (Infinite M200 Pro, Tecan, Switzerland) and the relative cell viability was calculated relative to untreated control (10 mM PBS, pH 7.0). Each treatment was performed in two triplicates and reported.
In general terms: Formazan colour is commonly taken as a measure of viable cells.

The subject of a further series is P. aeruginosa. Type of series: cell-based, Pseudomonas aeruginosa. The following applies: Table 4, range over 5 strains. The method, then:
(§1) MIC of cationic polymers and polypeptide were tested in accordance with the Clinical and Laboratory Standards Institute (CLSI) guidelines against a panel of antibiotic-susceptible/-resistant bacteria, yeasts and fungal strains. Bacterial and yeast strains were cultured on tryptic soy agar (TSA) and Sabaroud dextrose agar (SDA) plates (Neogen Corporation, MI, USA) overnight respectively. Inocula in Mueller-Hinton broth (MHB) for bacteria and SD broth for C. albicans (Beckton Dickinson, MD, USA) were prepared at 0.5 McFarland. The suspensions were then diluted to a final concentration of 10^5 CFU/ml in a 96-well microtitre plate (SPL Life Sciences Co., Ltd, Korea). Polymers and polypeptides were added to the inoculum in 2-fold serial dilutions to give a range of concentrations from 2-1024 μg/ml. […] The antimicrobial activities were compared with topical antiseptic agents, BAK and CHX. A similar protocol was used to determine the MIC of εPL against antibiotic-resistant pathogens. MIC of the polymers and polypeptides against Fusarium strains was determined in full strength RPMI-1640 buffer. Fungal spores were recovered from a 5-day old culture on a potato dextrose agar and diluted to a concentration of 10^5 spores/ml in 0.9% saline solution. A further 50-fold dilution was done in RPMI-1640 buffer and 100 μl of the inoculum was added to 96 well plates containing an equal volume of test peptides at 2-fold serial dilutions. 200 μl of inoculum without any additives and buffer alone served as positive and negative controls, respectively. The plate was then incubated at 30° C. for 48 h. The absorbance value was measured at 600 nm as before and the lowest concentration of the peptide which inhibited 90% growth was reported. All MIC determinations were performed in duplicates.
(§2) MICs of polymers/antibiotics were determined using the microdilution method in 96 well microtitre plates (SPL Life Sciences Co., Ltd, Korea), following the guidelines of Clinical and Laboratory Standards Institute (CLSI) document M100-S18. Briefly, polymers (1-512 μg/ml) or antibiotics were dissolved in appropriate media (Mueller Hinton broth, MHB for bacteria; Sabaroud's Dextrose (SD) broth for yeasts and RPMI buffer for Fusarium strains) and 100 μl of this was then mixed with an equal volume of microbial inoculum (OD600=˜0.08) in the same media and shaken in a closed incubator.

Another series relates to S. aureus or MRSA. Type of series: cell-based, Staphylococcus aureus. The conditions noted are these: Table 4, range over 5 strains. The method, then: as §1, §2
Series [2] can be described thus: Calcein dye leakage from mammalian model LUVs. The conditions noted are these: peptide:lipid ratio 0.0625. As for the experimental part: To obtain an insight into the mechanism of membrane discrimination, large unilamellar vesicles (LUVs) which mimic the cytoplasmic membrane of mammalian (PC/Cholesterol) and microbial (PE:PG) cells were used. […] More dramatic results were observed when the experiments were carried out on PC/Cholesterol LUVs.

The next series deals with C. albicans. The conditions noted are these: Table 4, range over 5 strains. The method, then:
as §1, with “Korea).” for “Korea). Polymers and polypeptides were added to the inoculum in 2-fold serial dilutions to give a range of concentrations from 2-1024 μg/ml.”
as §2

The test system of series [3] is Vancomycin-resistant Enterococcus (VRE). The following applies: VRE (n = 21), 90% of strains susceptible, Table 7. The method, then:
as §1, with “Korea).” for “Korea). Polymers and polypeptides were added to the inoculum in 2-fold serial dilutions to give a range of concentrations from 2-1024 μg/ml.”
as §2

Series [4] concerns Carbapenam-resistant Enterobacter strains (CRE). The following applies: CRE (n = 19), 50% of strains susceptible, Table 7. The method, then:
as §1, with “Korea).” for “Korea). Polymers and polypeptides were added to the inoculum in 2-fold serial dilutions to give a range of concentrations from 2-1024 μg/ml.”
as §2

The subject of another series is A. baumannii. The conditions noted are these: A. baumanii (n = 10), 90% of strains susceptible, Table 7. As for the experimental part:
as §1, with “Korea).” for “Korea). Polymers and polypeptides were added to the inoculum in 2-fold serial dilutions to give a range of concentrations from 2-1024 μg/ml.”
as §2

For another series, the system named is S. epidermidis 12228. The following applies: S. epidermidis 12228, Table 5. The method, then: as §1, with “Korea).” for “Korea). Polymers and polypeptides were added to the inoculum in 2-fold serial dilutions to give a range of concentrations from 2-1024 μg/ml.”
as §2

Another series concerns B. subtilis ATCC 6633. The conditions noted are these: B. subtilis ATCC 6633, Table 5. As for the experimental part:
as §1, with “Korea).” for “Korea). Polymers and polypeptides were added to the inoculum in 2-fold serial dilutions to give a range of concentrations from 2-1024 μg/ml.”
as §2

SMILES strings stand for the structures. In brackets after ≈: the same amount, converted by molar mass.

Turning to `CC[C@H](C)[C@H](NC(=O)CN)C(=O)NCC(=O)N[C@@H](C)C(=O)N[C@H](C(=O)N[C@@H](CC(C)C)C(=O)N[C@@H](CCCCN)C(=O)N[C@H](C(=O)N[C@@H](CC(C)C)C(=O)N[C@H](C(=O)N[C@H](C(=O)NCC(=O)N[C@@H](CC(C)C)C(=O)N1CCC[C@H]1C(=O)N[C@@H](C)C(=O)N[C@@H](CC(C)C)C(=O)N[C@H](C(=O)N[C@@H](CO)C(=O)N[C@@H](Cc1c[nH]c2ccccc12)C(=O)N[C@H](C(=O)N[C@@H](CCCCN)C(=O)N[C@@H](CCCNC(=N)N)C(=O)NCCCC[C@H](N)C(=O)N[C@@H](CCCNC(=N)N)C(=O)N[C@@H](CCC(N)=O)C(=O)N[C@@H](CCC(N)=O)C(N)=O)[C@@H](C)CC)[C@@H](C)CC)[C@@H](C)O)[C@@H](C)O)C(C)C)C(C)C` [Peptide 1], the “Cytotoxicity (in μg/ml) for HDFs” value in series [1] (Concentration at which complete cytotoxicity was observed in MTS and HCA) was determined as 32 µg/mL. For the same molecule, the “MIC against P. aeruginosa (n = 5)” value against P. aeruginosa was 4 to 16 mg/L. In addition, the “MIC against S. aureus or MRSA (n = 5)” value against S. aureus or MRSA lay in the range of 4 to 8 mg/L. The “dye leakage from PC/Cholesterol LUVs” value in series [2] is around 70%. In the series on C. albicans, the “MIC against C. albicans (n = 5)” value was 4 to 8 mg/L.
With `CC[C@H](C)[C@H](NC(=O)[C@H](CO)NC(=O)[C@H](CCCCN)NC(=O)[C@H](CC(C)C)NC(=O)[C@H](CCCCN)NC(=O)[C@@H](N)CC(C)C)C(=O)N[C@H](C(=O)N[C@@H](CO)C(=O)N[C@@H](Cc1c[nH]c2ccccc12)C(=O)N[C@@H](C)C(=O)NCCCC[C@H](N)C(=O)N[C@@H](CCCCN)C(=O)N[C@H](C(=O)N[C@@H](CC(C)C)C(N)=O)C(C)C)C(C)C` [MB-3, LKLKSIVSWAKKVL], in series [1], the “Peptide concentration required to impart cytotoxic effect” value (from here on “Peptide concentration required”) amounted to 1000 µg/mL and the “Cytotoxicity for HDFs” value was 1000 µg/mL. Moreover, the MIC90 entry in series [3] is “(MIC90 = 128) μg/ml”. In addition, the MIC50 result in [4] is “(MIC50 = 64) μg/ml”.
Regarding `CC[C@H](C)[C@H](NC(=O)[C@H](CO)NC(=O)[C@H](CCCCN)NC(=O)[C@H](CC(C)C)NC(=O)[C@@H](N)CCCCNC(=O)[C@@H](N)CC(C)C)C(=O)N[C@H](C(=O)N[C@@H](CO)C(=O)N[C@@H](Cc1c[nH]c2ccccc12)C(=O)N[C@@H](C)C(=O)N[C@@H](CCCCN)C(=O)N[C@@H](CCCCN)C(=O)N[C@H](C(=O)N[C@@H](CC(C)C)C(N)=O)C(C)C)C(C)C` [MB-1, LKLKSIVSWAKKVL], the “Peptide concentration required” value in [1] came to 250 µg/mL. The “Cytotoxicity for HDFs” value in series [1] is 250 µg/mL. The MIC90 result (in [3]; against A. baumannii) was “(MIC90 = 8) μg/ml” each time. For the same molecule, the MIC50 result in series [4] was “(MIC50 = 32) μg/ml”.
Consider `CC[C@H](C)[C@H](NC(=O)CN)C(=O)NCC(=O)N[C@@H](C)C(=O)N[C@H](C(=O)N[C@@H](CC(C)C)C(=O)N[C@@H](CCCCN)C(=O)N[C@H](C(=O)N[C@@H](CC(C)C)C(=O)N[C@H](C(=O)N[C@H](C(=O)NCC(=O)N[C@@H](CC(C)C)C(=O)N1CCC[C@H]1C(=O)N[C@@H](C)C(=O)N[C@@H](CC(C)C)C(=O)N[C@H](C(=O)N[C@@H](CO)C(=O)N[C@@H](Cc1c[nH]c2ccccc12)C(=O)N[C@H](C(=O)N[C@@H](CCCCN)C(=O)N[C@@H](CCCNC(=N)N)C(=O)N[C@@H](CCCCN)C(=O)N[C@@H](CCCNC(=N)N)C(=O)N[C@@H](CCC(N)=O)C(=O)N[C@@H](CCC(N)=O)C(N)=O)[C@@H](C)CC)[C@@H](C)CC)[C@@H](C)O)[C@@H](C)O)C(C)C)C(C)C` [Melittin, reference compound], for which the “MIC against P. aeruginosa (n = 5)” value against P. aeruginosa lay within 4 to 16 mg/L. Moreover, the MIC turned out to be 4 mg/L (≈ 1.41 µM) against S. epidermidis 12228 and 32 mg/L (≈ 11.2 µM) in the series with B. subtilis ATCC 6633.
For `CC[C@H](C)[C@H](NC(=O)[C@H](CO)NC(=O)[C@H](CCCCN)NC(=O)[C@H](CC(C)C)NC(=O)[C@H](CCCCN)NC(=O)[C@@H](N)CC(C)C)C(=O)N[C@H](C(=O)N[C@@H](CO)C(=O)N[C@@H](Cc1c[nH]c2ccccc12)C(=O)N[C@@H](C)C(=O)N[C@@H](CCCCN)C(=O)NCCCC[C@H](N)C(=O)N[C@H](C(=O)N[C@@H](CC(C)C)C(N)=O)C(C)C)C(C)C` [MB-4, LKLKSIVSWAKKVL], in series [1], the “Peptide concentration required” value was above 1000 µg/mL and the “Cytotoxicity for HDFs” value was above 1000 µg/mL. Further, the MIC90 entry in series [3] is recorded as “(MIC90 = 128) μg/ml”. Moreover, the MIC50 result in series [4] is recorded as “(MIC50 = 64) μg/ml”.
`CC[C@H](C)[C@H](NC(=O)[C@H](CO)NC(=O)[C@@H](N)CCCCNC(=O)[C@H](CC(C)C)NC(=O)[C@H](CCCCN)NC(=O)[C@@H](N)CC(C)C)C(=O)N[C@H](C(=O)N[C@@H](CO)C(=O)N[C@@H](Cc1c[nH]c2ccccc12)C(=O)N[C@@H](C)C(=O)N[C@@H](CCCCN)C(=O)N[C@@H](CCCCN)C(=O)N[C@H](C(=O)N[C@@H](CC(C)C)C(N)=O)C(C)C)C(C)C` [MB-2, LKLKSIVSWAKKVL]: in series [1], the “Peptide concentration required” value turned out to be 1000 µg/mL and the “Cytotoxicity for HDFs” value worked out at 1000 µg/mL. For the same molecule, the MIC90 result in series [3] is “(MIC90 = 8) μg/ml”. Also, in series [4], the MIC50 result is reported as “(MIC50 = 64) μg/ml”. In the series with A. baumannii, the MIC90 result is “(MIC90 = 8) μg/ml”.

The MIC is the lowest concentration found to suppress growth.
